This assay deals with human P2X7 receptor (Homo sapiens (Human), UniProt Q99572, R270H). Kind of assay: Evaluation of a human P2X7 receptor inhibitory activity (Yo-Pro uptake, BzATP stimulation, FLIPR TETRA). Particulars: 1321N1 cells stably expressing human P2X7 receptor, Yo-Pro fluorescence, class symbols. On the procedure: Evaluation of a human P2X7 receptor inhibitory activity Stably expressing cell line (1321N1 cell transfected with the human P2X7 receptor gene (GenBank accession number NM_002562.5 including T606C and G952A SNP)) was used. The cells were seeded in a 384-well microtiter plate at a concentration of 8000 cells/well and cultured in the medium (10% fetal bovine serum, 25 mM HEPES, 1% penicillin and streptomycin in DMEM) for one day at 37° C. under 5% carbon dioxide atmosphere. After replacing with 20 μL of the HBSS buffer (20 mM HEPES, 55.6 mM D-glucose, 1× HBSS(−), pH7.4-7.5), 15 μL of 17.3 μM Yo-Pro solution in the HBSS buffer was added. […] Measurement of fluorescence intensity by FLIPR TETRA was started. After eight minutes, 15 μL of DMSO solutions containing different concentrations of the compound of the present invention as prepared by dilution with the HBSS buffer were dispensed to each well through the built-in automatic dispenser, and the measurement of fluorescence intensity was continued for 20 minutes. […] Changing values of fluorescence intensity by the compound of the present invention were calculated by difference between maximum and minimum fluorescence intensity for 20 minutes. Inhibition ratios (%) were calculated from the following equation:
[formula] IC50 was calculated using logistic approximation. […]

Sequences of proteins named here, by UniProt entry; tags and fusion partners are left off.
UniProt Q99572, whole entry R270H: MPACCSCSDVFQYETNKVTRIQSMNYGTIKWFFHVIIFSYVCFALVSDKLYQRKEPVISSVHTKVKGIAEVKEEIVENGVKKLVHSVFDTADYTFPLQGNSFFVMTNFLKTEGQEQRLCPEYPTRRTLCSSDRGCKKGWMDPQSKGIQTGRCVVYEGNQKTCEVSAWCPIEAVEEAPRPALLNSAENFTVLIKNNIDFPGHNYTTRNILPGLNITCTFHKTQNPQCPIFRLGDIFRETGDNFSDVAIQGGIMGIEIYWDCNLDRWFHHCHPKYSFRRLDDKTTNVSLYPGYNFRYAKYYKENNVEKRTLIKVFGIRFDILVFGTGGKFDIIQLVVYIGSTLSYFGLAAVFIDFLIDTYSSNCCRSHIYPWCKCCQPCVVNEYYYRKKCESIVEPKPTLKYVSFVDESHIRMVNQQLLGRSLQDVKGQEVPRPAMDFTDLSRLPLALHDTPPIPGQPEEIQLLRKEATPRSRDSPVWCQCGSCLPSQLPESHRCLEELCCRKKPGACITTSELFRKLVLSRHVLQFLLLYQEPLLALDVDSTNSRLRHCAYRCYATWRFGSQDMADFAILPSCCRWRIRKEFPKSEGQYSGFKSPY

For orientation: IC50 means the concentration that gives 50% inhibition. As for `COc1ccc(C)c(Nc2nc(=O)c(F)c3n2C(c2ccc(F)cc2F)CC3)c1` (stereo not shown), the IC50 was 10 to 100 nM.

The values are drawn from patent publication US11066409B2, “Bicyclic nitrogen-containing heterocyclic derivatives and pharmaceutical composition comprising the same” (Shionogi & Co., Ltd., priority 2016, dated 2021).
